Values quoted from earlier work, collected in patent publication US9969773B2, “Polymers, pharmaceutical compositions and methods of synthesizing the same” (NEW YORK UNIVERSITY, priority 2014, dated 2018).

Details: relative to the original (unPEGylated) protein

PEGylated Interferon α-2a: PEGylated Interferon α-2a, a hepatitis C therapeutic, can consist of various positional isomers
activity retained in comparison to the original protein: 7%
